Laboratory results: paper PMC8957950, “Dose Optimization of Teicoplanin for Critically Ill Patients With Renal Dysfunction and Continuous Renal Replacement Therapy: Experience From a Prospective Interventional Study” (Frontiers in Pharmacology, 2022)
Like-named read-outs stand apart in the source and are kept apart here. Marks after values point to notes of the source that are not given here.

Experiments:
[1] = in vivo; cited from earlier work
[2] = remark: listed apart in the source
Excerpt: Patients’ data were obtained from the inpatients’ medical database.

[3] = not given; remark: listed apart in the source
[4] = CRRT patients (CVVH), n = 26, ultrafiltrate, mean (SD), HPLC, SD
[5] = before the 6th–8th dose, CRRT group

Teicoplanin
Filtration coefficient of TEI (CRRT (CVVH), stable even at a higher ultrafiltration rate, summary statement): about 10%
Trough serum concentration at the 6th–8th dose (CRRT patients (CVVH), n = 26, 24 h after start of infusion, mean (SD), HPLC, SD): 23.8 ± 7.1 mg/L
Filtration coefficient at Cmin (CRRT patients (CVVH), n = 26, Sc = Cuf/Cs, mean (SD), SD): 10.7 ± 2.4%
Filtration coefficient at peak concentration (CRRT patients (CVVH), n = 26, Sc = Cuf/Cs, ultrafiltration rate 44.7 ± 10.1 ml/kg/h, mean (SD), SD): 11.1 ± 2.5 ^a %
Peak filtrate concentration at the 6th–8th dose [4]: 3.9 ± 1.1 mg/L
Trough filtrate concentration at the 6th–8th dose [4]: 2.5 ± 0.8 mg/L
AUC (CRRT patients, CVVH mode, n = 26, AUC24h = daily dose/CL, mean (SD), SD): 1541.8 ± 507.4 µg·h/mL
CL of TEI in the CVVHDF mode [1]: 5.8 ± 4.2 mL/h/kg
Elimination by hemodialysis [1]: cannot be eliminated by hemodialysis
Patients with renal dysfunction achieving the target Cmin of 15 μg/ml [1]: 20.3%
Serum elimination half-life [1]: about 50 h
Rate of adverse events ([2]; CRRT group): 5.0%
Cases of liver injury ([2]; CRRT group (n = 40)): Two
Rate of adverse events ([2]; non-CRRT group): 7.6%
Cases of liver injury after TEI treatment ([2]; non-CRRT group (n = 66)): one
Rate of TEI Cmin in the range of 10–30 mg/L ([3]; before the 3rd dose, CRRT group): 70.0%
Rate of TEI Cmin in the range of 10–30 mg/L ([3]; before the 3rd dose, IRF (non-CRRT) group): 75.8%
Rate of Cmin in the range of 15–30 mg/L [3, 5]: 70%
Rate of TEI Cmin in the range of 10–30 mg/L [3, 5]: 90.0%
Rate of TEI Cmin in the range of 10–30 mg/L ([3]; before the 6th–8th dose, IRF (non-CRRT) group): 89.1%
Rate of Cmin in the range of 15–30 mg/L ([3]; before the 6th–8th dose, non-CRRT group): 71.7%
